Assay results from article doi:10.1101/2025.01.19.633805.
Values joined by “and” are separate entries in the source; they are usually repeats but may differ in a detail not shown here. Equal entries are not always repeated.

Experiments:
[1] = target: Chloride Intracellular Channel 1 (CLIC1), His-tag cleaved with TEV protease (UniProt O00299); test: SEC
[2] = target: Chloride Intracellular Channel 1 (CLIC1), His-tag cleaved with TEV protease (UniProt O00299); test: mass photometry

## Chloride Intracellular Channel 1 (CLIC1), His-tag cleaved with TEV protease (from UniProt O00299 1-241) (natural protein)
[1]
  stoichiometry N: 2 and 4
[2]
  stoichiometry N: 4
